# Results reported in patent US20220175768A1, “FGFR TYROSINE KINASE INHIBITORS FOR THE TREATMENT OF UROTHELIAL CARCINOMA” (Janssen Pharmaceutica NV, priority 2019, published 2022).
# Conditions: 8 mg Continuous, Regimen 3 (n = 99)
compound,measurement,value
"COc1cc(OC)cc(N(CCNC(C)C)c2ccc3ncc(-c4cnn(C)c4)nc3c2)c1 [erdafitinib, N-(3,5-dimethoxy-phenyl)-N′-(1-methylethyl)-N-[3-(1-methyl-1H-pyrazol-4-yl)quinoxalin-6-yl]ethane-1,2-diamine]",Serious treatment-emergent adverse event: Musculoskeletal and connective tissue disorders,0 no.
